Assay results published in ChEMBL document CHEMBL6153085, “Discovery of N-(1,2,4-Thiadiazol-5-yl)benzo[b]oxepine-4-carboxamide Derivatives as Novel Antiresistance Androgen Receptor Antagonists” (J Med Chem, 2025).

What was measured:
[1] = Half life in rat at 5 mg/kg, po; conditions: in vivo
in vivo [2] = conditions: rat, po, 5 mg/kg
in vivo [3] = conditions: rat, po, 5 mg/kg; remark: listed apart in the source
in vivo [4] = conditions: rat, iv, 1 mg/kg
in vivo [5] = conditions: rat, po, 5 mg/kg; remark: listed apart in the source

half-life [1]: 3.54 h | Cmax (in vivo [2]): 148 ng/mL | AUC(0-inf) (in vivo [3]): 833 ng·h/mL | AUC(0-inf) (in vivo [4]): 441 ng·h/mL | bioavailability (in vivo [5]): 30.6%
SMILES: O=C(Nc1nc(CN2CCOCC2)ns1)C1=Cc2cc(Cl)ccc2OC=C1
